Data taken from patent US12582645B2, “Chemokine CXCR4 receptor modulators and uses related thereto” (Emory University, priority 2017, dated 2026).

Chains of the proteins cited; added tags and fusions are not shown.
UniProt P61073, whole entry: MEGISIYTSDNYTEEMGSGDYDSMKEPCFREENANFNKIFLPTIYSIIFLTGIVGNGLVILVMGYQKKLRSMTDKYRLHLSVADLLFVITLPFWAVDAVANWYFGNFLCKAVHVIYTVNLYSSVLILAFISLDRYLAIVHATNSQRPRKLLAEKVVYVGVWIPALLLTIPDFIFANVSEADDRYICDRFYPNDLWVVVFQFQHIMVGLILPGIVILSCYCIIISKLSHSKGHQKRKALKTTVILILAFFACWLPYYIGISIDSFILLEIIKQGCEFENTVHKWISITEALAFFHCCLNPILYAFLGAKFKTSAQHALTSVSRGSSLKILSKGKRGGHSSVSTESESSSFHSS

These molecules were tested against T1, CXCR4 (Homo sapiens, UniProt P61073) (assay: CXCR4-CEM calcium flux assay, antagonist mode (inhibition of SDF-1α-induced calcium flux)). Details: CCRF-CEM cells expressing endogenous CXCR4, stimulated with 4 nM SDF-1α, read-out: CXCR4 Ca^2+ Flux IC50.
T1 construct: Human T lymphoblast cells (CCRF-CEM) expressing endogenous CXCR4 receptors; endogenous in cells; host or cells: CCRF-CEM (human T lymphoblast cells)
Format: cell-based
Method: CXCR4-CEM Calcium Flux Assays
Exemplary compounds of the invention were tested for their ability to induce or inhibit calcium flux in CCRF-CEM cells, a human cell line that endogenously expresses CXCR4. Activation of CXCR4 stimulates G protein signaling which, in CCRF-CEM cells, causes a series of downstream events that leads to the release of intracellular calcium stores, or calcium flux. Calcium ion concentrations can be easily measured using a wide variety of […] calcium indicators and, as a result, calcium flux assays are commonly employed methods for measuring G protein-coupled receptor (GPCR) activity. Because the therapeutic potential of CXCR4 antagonists as anti-cancer agents likely relies on their ability to inhibit CXCR4-mediated G protein signaling, this assay was utilized as a first-pass measure of inhibitor potency.
The cells were then equilibrated to room temperature for 30 minutes before assay. […] For “antagonist mode” assessment, the cells are subsequently incubated for 25 minutes at room temperature. SDF-1α (R&D System Cat #350-NS/CF) was then added at a final concentration of 4 nM to stimulate the cells. Inhibition of SDF-1α-induced calcium flux was monitored by FDSS6000 for 90 seconds.
After correcting for background, EC50 values were determined. […] Inhibition data for the test compound over a range of concentrations was plotted as percentage inhibition of the test compound as compared to an internal control compound.
`C(=C\CN(C[C@H]1Cc2ccccc2CN1)[C@H]1CCCc2cccnc21)/CNCc1ccncc1` [EMU221, (E)-N1-(pyridin-4-ylmethyl)-N4-(((R)-1,2,3,4-tetrahydroisoquinolin-3-yl)methyl)-N4-((S)-5,6,7,8-tetrahydroquinolin-8-yl)but-2-ene-1,4-diamine] was tested, and the IC50 was 40.7 nM.
For `c1cncc(CNCc2ccc(CN(C[C@H]3Cc4ccccc4CN3)[C@H]3CCCc4cccnc43)cc2)c1` [EMU219, (S)—N-(4-(((pyridin-3-ylmethyl)amino)methyl)benzyl)-N—(((R)-1,2,3,4-tetrahydroisoquinolin-3-yl)methyl)-5,6,7,8-tetrahydroquinolin-8-amine], the IC50 was 60.5 nM.
With `c1ccc2c(c1)CN[C@@H](CN(Cc1ccc(CNCC3CCOCC3)cc1)[C@H]1CCCc3cccnc31)C2` [EMU216, (S)—N-(4-((((tetrahydro-2H-pyran-4-yl)methyl)amino)methyl)benzyl)-N—(((R)-1,2,3,4-tetrahydroisoquinolin-3-yl)methyl)-5,6,7,8-tetrahydroquinolin-8-amine] the IC50 was 183 nM.
`NCc1ccc(CN(C[C@H]2Cc3ccccc3CN2)[C@H]2CCCc3cccnc32)cc1` [EMU093, (S)—N-(4-(aminomethyl)benzyl)-N—(((R)-1,2,3,4-tetrahydroisoquinolin-3-yl)methyl)-5,6,7,8-tetrahydroquinolin-8-amine] was tested, and the IC50 was 115 nM.
